{"source": "patent US20070157931A1", "about": "“System and method for optimized delivery of an aerosol to the respiratory tract” (priority 2005, published 2007)", "test": "Aerosol deposition and clearance of radiotracers in lungs of ventilated sheep (Hawkeye imaging, gamma counting of lung tissue)", "format": "in vivo", "conditions": "Hi-Flo MiniHeart nebulizer", "experimental": "The present study was designed to assess aerosol deposition patterns using jet nebulizers and the device of the present disclosure. These studies were conducted in the Vanderbilt University Medical Center Hawkeye scanning facility. Each sheep was surgically instrumented with catheters in a jugular vein and a carotid artery. After allowing several days for the sheep to recuperate from surgery, they were anesthetized, intubated, ventilated, and placed on the GE Hawkeye scanner bed. After a 30 minute acclimatization period, 500 μCi of ^99mTc-DTPA and 250 μCi of 131I-albumin were added to a syringe and the volume brought to 5 ml with normal saline. The contents of the syringe were then added to a nebulizer and aerosols generated for 30 minutes during ventilator-assisted inspiration. Planar images were taken every two minutes with anterior and posterior cameras. Nebulization was then halted, and clearance of the radiotracers over two hours was measured with Hawkeye in an identical manner. At the end of the radioisotope clearance image acquisition, a rotational CT image was taken of the sheep thoracic cavity to delineate lung boundaries and chest anatomy. The sheep was sacrificed and its lungs excised. Lungs were placed on grid paper and diced with a rectangular cutting grid. Lung tissue was placed in plastic vials and gamma energy emissions of each isotope measured with a gamma counter."}
{"substance": "131I-albumin: radiolabelled albumin tracer delivered as aerosol", "values": [{"measurement": "tracer remaining in lungs after halting aerosol generation", "setting": "2 hours after halting aerosol generation", "result": "much of the tracer remained"}, {"measurement": "radioisotope distribution in lung tissue", "setting": "gamma counting of lung tissue samples", "result": "higher dorsal (towards back) and caudal (towards tail) deposition"}]}
